What is called inhibition is the change of the read-out against control, counted positive when it falls.

Consider 2 compounds from PubChem BioAssay AID853 (Columbia University Molecular Screening Center, 2007).

This is a selection; strong and weak results do not stand in their true shares. Active and inactive are the calls of the source.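 How the source made its calls: active means inhibition of aggregate fluorescence above about 70%, also judged a hit by eye on the cell image (limit read from the data, passing the limit was not always enough); inconclusive means no rule stated for this call; inactive means not judged a hit on image review.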

This assay can be described thus: clearance of mutant huntingtin inclusions, primary screen, imaging, HeLa Exon1htt(103Q)mCFP, confocal imaging (AID 853).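 Further: cells exposed to compound for three days before fixation.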 The note with it: aggregate imaging, at 1.5 µM, stronger effect = higher value, zero = plate's median compound well.
With `COc1ccc(NC2CCN(CCc3ccccc3)CC2)c(OC)c1`, the inhibition was inactive: -21.5%. The value for `N#CC1(Nc2ccccc2)CCN(CCc2ccccc2)CC1` was inactive: 11.3%.
